One series addresses T1, ATP synthase (Complex V) (Mus musculus, UniProt P56480).
T1 construct: Mitochondria were isolated from mouse liver as described above; from tissue; host or cells: isolated mouse liver mitochondria
Description: Mitochondrial coupling assay / respiratory control ratio. The class given is biochemical. Conditions: mouse liver mitochondria. The protocol: Mitochondrial RCR was analyzed using isolated mouse liver mitochondria (see Brand, et al. Biochem J 435, 297-312 (2011) and references therein). Mitochondria were isolated from mouse liver as described above. The final mitochondrial pellet was resuspended in 30 μl of MAS buffer (70 mM sucrose, 220 mM mannitol, 10 mM KH2PO4, 5 mM MgCl2, 2 mM HEPES, 1 mM EGTA, and 0.2% fatty acid free BSA, pH 7.2).
Isolated mitochondrial respiration was measured by running coupling and electron flow assays as described (Rogers, et al. PLoS One 6, e21746 (2011)). For the coupling assay, 20 μg of mitochondria in complete MAS buffer (MAS buffer supplemented with 10 mM succinate and 2μM rotenone) were seeded into a XF24 Seahorse plate by centrifugation at 2,000×g for 20 minutes at 4° C. Just before the assay, the mitochondria were supplemented with complete MAS buffer for a total of 500 μl (with 1% DMSO, octanol, octyl α-KG, or octyl 2-HG), and warmed at 37° C. for 30 minutes before starting the oxygen consumption rate measurements. Mitochondrial respiration begins in a coupled State 2; State 3 is initiated by 2 mM ADP; State 4o (oligomycin-insensitive, i.e., Complex V-independent) is induced by 2.5 μM oligomycin and State 3u (FCCP uncoupled maximal respiratory capacity) by 4 μM FCCP. Finally, 1.5 μg/ml antimycin A was injected at the end of the assay. The State 3/State 4o ratio gives the respiratory control ratio (RCR).

Protein sequences, listed by entry. Tags and fused reporters are not part of them. Lines headed by an entry give the natural chain unless they say otherwise; changes in a name come on top.
UniProt P56480: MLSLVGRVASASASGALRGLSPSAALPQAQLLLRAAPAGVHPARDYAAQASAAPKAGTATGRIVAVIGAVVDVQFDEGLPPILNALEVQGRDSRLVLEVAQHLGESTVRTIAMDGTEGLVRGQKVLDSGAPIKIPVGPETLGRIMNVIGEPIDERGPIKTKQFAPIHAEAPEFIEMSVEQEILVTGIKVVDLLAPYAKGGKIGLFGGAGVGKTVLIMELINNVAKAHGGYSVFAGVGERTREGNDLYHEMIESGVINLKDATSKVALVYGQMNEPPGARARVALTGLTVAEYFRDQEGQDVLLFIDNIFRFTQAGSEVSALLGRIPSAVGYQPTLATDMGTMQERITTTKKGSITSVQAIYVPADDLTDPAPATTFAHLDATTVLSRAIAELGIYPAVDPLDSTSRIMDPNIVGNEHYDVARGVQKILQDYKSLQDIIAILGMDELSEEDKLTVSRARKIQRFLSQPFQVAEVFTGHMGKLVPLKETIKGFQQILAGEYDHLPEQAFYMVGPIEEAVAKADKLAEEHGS

A further series concerns HEK-293 cells. Conditions: 72 hours.
The next series deals with U87 cells. Nature of the series: Metabolic profile analysis (LC-MS). The note with it: octyl α-KG treated samples.
Another series has as its system DBA2/J female mice. Nature of the series: Isoproterenol-induced hypertrophy and heart failure in mice. The series is classed as in vivo, mouse. Conditions: ISO 30 μg/g/day 3 weeks plus octyl α-KG 0.5 mg/g daily in chow; ISO+octanol 7.26±0.12; Mean, STEDV. The protocol:
Hypertrophy and heart failure were induced by chronic infusion of isoproterenol for 3 weeks at a dose of 30 μg per gram bodyweight per day using osmotic mini-pumps (Alzet, model 1004). DBA2/J female mice at 8 weeks old were used for this study. […] ISO-induced cardiac hypertrophy and cardiomyopathy were determined at the end of experiment by assessing heart size and heart to body weight ratio.
More importantly, cardiac output was assessed and the cardiac ejection fractions were determined by echocardiography. The cardiac EF for the basal levels before the treatment is 55.1%±2.6 (n=14).

In series [1] the test system is electron transport chain (Complex I, Complex II, Complex IV). Nature of the series: Mitochondrial electron flow assay. The class given is biochemical, mouse. The protocol:
Mitochondria were isolated from mouse liver as described above.
For the electron flow assay, the MAS buffer was supplemented with 10 mM sodium pyruvate (Complex I substrate), 2 mM malate (Complex II inhibitor), and 4 μM FCCP, and the mitochondria are seeded the same way as described for the coupling assay. After basal readings, the sequential injections were as follows: 2 μM rotenone (Complex I inhibitor), 10 mM succinate (Complex II substrate), 4 μM antimycin A (Complex III inhibitor), and 10 mM/100 μM ascorbate/tetramethylphenylenediamine (Complex IV substrate).

Consider `CCCCCCCCOC(=O)C(=O)CCC(=O)O` [octyl α-KG, octyl α-ketoglutarate], for which the “coupling assay, 1-octyl versus 5-octyl ester” value on ATP synthase (Complex V) was “identical results”. In addition, on ATP synthase (Complex V) (800 μM), the “state 3 respiration” value is “decreases”. The “state 4o or 3u respiration” value at ATP synthase (Complex V) (800 μM, P=0.997) is reported as “not”. In addition, at ATP synthase (Complex V) (800 μM, vehicle 5.2 ±1.0), the respiratory control ratio was 3.1 ±0.6. In addition, the “autophagy (MAP1 LC3 Western blot)” value in the series with HEK-293 cells is on record as “increased”. In the series with U87 cells, the “accumulation of α-KG in metabolic profile” value is “the most profound change”. The “heart (mg)/body (g) ratio” value with DBA2/J female mice was found to be 6.81 ± 0.24 mg/g. Besides, the “Complex I, Complex II, or Complex IV respiration” value in series [1] (30 minutes treatment, 800 μM) is “No difference”. Moreover, the “electron flow assay, 1-octyl versus 5-octyl ester” value in series [1] (mouse liver mitochondria) is “identical results”.

Values taken from patent US20230218559A1, “Compositions and Methods for Treating Aging and Age-Related Diseases and Symptoms” (The Regents of the University of California, priority 2014, published 2023).
